# Reference: published antibiotic growth screens (doi:10.1038/s41589-023-01349-8)
# The list shows a part of the results.
# System: A. baumannii ATCC 17978
# Assay: relative growth (fraction of control); higher = less inhibition
# Details: 50 µM
row,Compound,relative growth
1,CN(C)CCC(c1ccc(Br)cc1)c1ccccn1.O=C(O)/C=C\C(=O)O (stereo not drawn),1.22
2,CN(C)CC(=O)N[C@@H]1CC[C@H](CCn2cc(CN(C)C)nn2)O[C@H]1CO,0.964
3,Cc1c(OCC(F)(F)F)ccnc1C[S@@](=O)c1nc2ccccc2[nH]1,1.06
4,CN1C(=O)[C@@H](O)N(c2ccccc2)C1=O,0.995
5,O=C(Nc1ccccc1)Nc1ccc(Nc2ccccc2)cc1,1.24
6,O=C(C[C@H]1C=C[C@@H](NC(=O)Nc2ccc3c(c2)OCO3)[C@@H](CO)O1)NCCCN1CCOCC1,1
7,Nc1cc(=O)nc2sc(C3CC3)nn12,1.05
8,COc1ccccc1NC(=O)N(C)C[C@H]1Oc2ncc(Br)cc2C(=O)N([C@H](C)CO)C[C@@H]1C,0.985
9,COC(=O)c1c2oc(c1C(=O)OC)C(=O)N(C)Cc1cn(nn1)C[C@H](Cc1ccccc1)NC(=O)N[C@H](CO)CC2,1.14
10,COC(=O)C1=C2CC[C@H](CO)NC(=O)N[C@H](Cc3ccccc3)C(=O)NCc3cn(nn3)C[C@H](Cc3ccccc3)NC(=O)c3oc(c(C(=O)OC)c3C(=O)OC)CC[C@H](CO)NC(=O)N[C@H](Cc3ccccc3)C(=O)NCc3cn(nn3)C[C@H](Cc3ccccc3)NC(=O)C(=C1C(=O)OC)O2,0.925
11,CC(C)CC#Cc1ccc2c(c1)O[C@@H](CN(C)S(=O)(=O)c1ccc(F)cc1)[C@@H](C)CN([C@@H](C)CO)S2(=O)=O,1.12
12,O=C(C[C@@H]1C=C[C@@H](NC(=O)c2cccnc2)[C@H](CO)O1)NCc1ccncn1,0.998
13,O=C(C[C@@H]1C=C[C@@H](NC(=O)C2CC2)[C@@H](CO)O1)NCCCN1CCOCC1,1.03
14,CN1CCN(CC(=O)N2c3ccccc3C(=O)Nc3cccnc32)CC1.Cl.Cl,1.14
15,O=C(C[C@H]1CC[C@@H](NC(=O)Nc2ccc3c(c2)OCO3)[C@@H](CO)O1)NCCCN1CCOCC1,1.08
16,CN1CCN(C(=O)C[C@H]2CC[C@@H]3[C@H](COC[C@@H](O)CN3Cc3ccc(Oc4ccccc4)cc3)O2)CC1,0.958
17,C=CCN1C(=O)[C@@]2(O[C@@H](CCn3cc([C@H](O)c4ccccc4)nn3)[C@H]([Si](C)(C)c3ccc(OC)cc3)[C@H]2C)c2cc(N3C(=O)c4cccc5cccc3c45)ccc21,1.18
18,O=C(NCCCO)C(=O)NC[C@H]1COc2ccccc2O1,0.942
19,O=C(C[C@@H]1CC[C@H]2[C@@H](COC[C@H](O)CN2S(=O)(=O)c2ccc(Cl)cc2)O1)NCCN1CCCCC1,0.9
20,O=C(CCc1ccc(O)cc1)c1c(O)cc(O)cc1O[C@@H]1O[C@H](CO)[C@@H](O)[C@H](O)[C@H]1O,1.01
21,Nc1ncnc2c1nc(Br)n2[C@H]1O[C@H]2COP(=O)(O)O[C@@H]2[C@@H]1O,1.13
22,C[C@@H]1CN([C@H](C)CO)C(=O)c2cc(-c3cccc(C(=O)N(C)C)c3)cnc2O[C@@H]1CN(C)C(=O)Cc1ccccn1,0.944
23,O=C1O[C@H](C(O)CO)C(O)=C1O (stereo partly drawn),0.985
24,CCNC(=O)C[C@H]1C=C[C@@H](NC(=O)C2CC2)[C@H](CO)O1,0.978
25,COc1cc2c(cc1OC)-c1c(oc3cc4c(cc3c1=O)CCO4)CO2,0.956
26,O=C(C[C@H]1C[C@@H]2c3cc(NC(=O)NC4CCCC4)ccc3O[C@@H]2[C@@H](CO)O1)NCc1ccc2c(c1)OCO2,0.889

row,Compound,relative growth
1,O=C(CCCCCNC(=O)OCCCCO[C@H]1C[C@H]2C(I)=C[C@@H]1C(=O)[C@]21CCCO1)NO,0.888
2,Cc1noc(C)c1NC(=O)N[C@@H]1C=C[C@@H](CC(=O)N2CCN(C)CC2)O[C@@H]1CO,0.943
3,COC1C(O)C(O)C(O)[C@@H](O)C1O (stereo partly drawn),1.01
4,CC(C)NCC(O)COc1ccc(COCCOC(C)C)cc1.O=C(O)/C=C/C(=O)O (stereo not drawn),0.992
5,O=C(NCCC1=CCCCC1)c1sc2ccccc2c1Cl,1.03
6,COc1ccc([Si](C)(C)[C@H]2[C@H](CC(=O)N(CCO)Cc3ccccc3)O[C@@]3(C(=O)N(Cc4cccc(N5CCCCC5=O)c4)c4ccccc43)[C@@H]2C)cc1,1.14
7,Cn1nnnc1-c1ccc(N)cc1,0.912
8,CCS(=O)(=O)NCC[C@@H]1CC[C@@H](NC(=O)C2CCOCC2)[C@H](CO)O1,1.06
9,CCCC1CCC(c2ccc(OC(=O)c3ccco3)cc2)CC1 (stereo not drawn),1.21
10,C[C@@H]1CN([C@H](C)CO)S(=O)(=O)c2ccc(Br)cc2O[C@@H]1CN(C)S(=O)(=O)c1ccc(F)cc1,0.74
11,CN1CCN(C(=O)C[C@@H]2CC[C@@H]3[C@H](COC[C@H](O)CN3S(=O)(=O)c3cccc(Cl)c3)O2)CC1,1.14
12,CC[C@H]1Sc2ccccc2NC1=O,0.815
13,N[C@H]1[C@H](CCCCC(=O)O)SC[C@@H]1N,0.996
14,Cl.N[C@@H](COP(=O)(O)O)C(=O)O,0.969
15,CCCc1cc(=O)[nH]c(=S)[nH]1,0.994
16,COC(=O)c1cccc(C(=O)OC)n1,1
17,CC1=C(CC(=O)O)c2cc(F)ccc2/C1=C\c1ccc(S(C)=O)cc1 (stereo not drawn),0.923
18,Cc1ccccc1S(=O)(=O)N1C[C@H](O)COC[C@@H]2O[C@H](CC(=O)N3CCC(Cc4ccccc4)CC3)CC[C@H]21,0.836
19,COc1ccc(S(=O)(=O)N[C@H]2CC[C@H](CC(=O)N3CCN(c4ccccc4)CC3)O[C@@H]2CO)cc1,1.15
20,C[C@H](CO)N1C[C@H](C)[C@@H](CN(C)C(=O)Cc2ccncc2)Oc2cc(C3=CCCC3)ccc2S1(=O)=O,0.968
21,O=C(O[C@@H]1Cc2c(O)cc(O)cc2O[C@@H]1c1cc(O)c(O)c(O)c1-c1c([C@H]2Oc3cc(O)cc(O)c3C[C@H]2O)cc(O)c(O)c1O)c1cc(O)c(O)c(O)c1,0.83
22,CC(=O)N[C@@H]1CC[C@@H](CCNC(=O)C2CC2)O[C@@H]1CO,0.96
23,NCC(=O)NC1CCCCC1,0.972
24,CC1=C(CCC(=O)O)c2cc3[nH]c(cc4nc(cc5[nH]c(cc1n2)c(C)c5C(C)O)C(C)=C4C(C)O)c(C)c3CCC(=O)O (stereo not drawn),1.04
25,COc1ccc(COCC23Oc4ccccc4[C@H]([C@H]2COC(=O)NCCCCCC(=O)NO)n2c(c4c(c(C(C)=O)c2=O)C(=O)N(C)C4=O)N3C)cc1,0.979
26,O=C1O[C@H](c2ccccc2)[C@H](c2ccccc2)N2[C@H]1[C@@H](C(=O)N1CCN(c3ncccn3)CC1)[C@]1(C(=O)Nc3ccc(C#CC4(O)CCCCCC4)cc31)[C@H]2c1ccccc1OCCO,1.19

row,Compound,relative growth
1,C[C@@H](O)C#Cc1ccc2c(c1)O[C@H](CN(C)C(=O)C1CCCCC1)[C@@H](C)CN([C@@H](C)CO)S2(=O)=O,0.93
2,CN1CCc2c(c3ccccc3n2Cc2ccccc2)C1,0.905
3,Nc1nc(N)c2nc(CNc3ccc(C(=O)NC(CCC(=O)O)C(=O)O)cc3)cnc2n1 (stereo not drawn),0.988
4,Cl.NC1=NCC2c3ccccc3Cc3ccccc3N12 (stereo not drawn),0.935
5,N=C(NO)C(=O)Nc1ccccc1,0.89
6,O=C(CN1CCNCC1)c1ccc(F)cc1,0.862
7,COc1cc2c(cc1OC)C(=O)C(CC1CCN(Cc3ccccc3)CC1)C2.Cl (stereo not drawn),0.161
8,NC(=O)N1C(=O)[C@H]2[C@H](C1=O)[C@H]1C=C(CCCO)[C@@H]2[C@H](c2cccs2)N1Cc1cc2c(cc1Br)OCO2,1.05
9,COc1ccc([C@@H]([C@H](Cc2ccccc2)OC(C)=O)N2C[C@@H](OC(C)=O)[C@@H]3[C@H]([C@@H]2Cc2ccccc2)N(C)O[C@H]3c2ccccc2)cc1,1.18
10,CC(C)(C)[C@H]1COC(=O)[C@@H](NC(=O)OCC2c3ccccc3-c3ccccc32)CC=CC[C@@H](CC(=O)N[C@H](CO)Cc2ccccc2)C(=O)N1,1.07
11,Cc1ccc(Nc2c(F)cccc2Cl)c(CC(=O)O)c1,1.04
12,C[C@@H]1O[C@@H](O[C@H]2[C@@H](Oc3cc(O)c4c(c3)O[C@H](c3ccc(O)cc3)CC4=O)O[C@H](CO)[C@@H](O)[C@@H]2O)[C@H](O)[C@H](O)[C@H]1O,1.04
13,N#Cc1c(N)n(CCN)c2nc3ccccc3nc12,0.932
14,COc1ccc([C@@H]([C@H](Cc2ccccc2)OC(C)=O)N2C[C@@H]3[C@H]([C@@H]2Cc2ccccc2)N(C)O[C@@]3(O)[C@@H](O)c2ccccc2)cc1,1.17
15,CC1(C)O[C@]2(C)CC[C@H]1CC2,1.03
16,COc1ccc([Si](C)(C)[C@H]2[C@H](CC(=O)N3Cc4ccccc4C[C@H]3CO)O[C@@]3(C(=O)N(Cc4ccc(N5C(=O)c6cccc7cccc5c67)cc4)c4ccccc43)[C@@H]2C)cc1,0.915
17,NC(=O)c1cc(S(=O)(=O)N2CCOCC2)ccc1F,0.993
18,Cc1cncc2cccc(S(=O)(=O)N[C@H]3CN[C@H](C(=O)NN)C3)c12,0.989
19,O=C(C[C@H]1CC=CCC[C@H](Cc2ccc(F)cc2)C(=O)OC[C@@H](Cc2ccccc2)NC1=O)NCCO,1.17
20,CO[C@H]1/C=C/O[C@@]2(C)Oc3c(C)c(O)c4c(O)c(c5c(nc6cc(C)ccn65)c4c3C2=O)NC(=O)/C(C)=C\C=C\[C@H](C)[C@H](O)[C@@H](C)C(O)[C@@H](C)[C@H](OC(C)=O)[C@@H]1C (stereo partly drawn),0.139
21,COc1ccc(/C=C/C(=O)O)cc1OC,1.05
22,CC12CC3CC(C)(C1)CC(N)(C3)C2.Cl,0.956
23,COc1cccc(S(=O)(=O)Nc2ccc3c(c2)[C@@H]2C[C@@H](CC(=O)NC4CCCCC4)O[C@@H](CO)[C@@H]2O3)c1,0.867
24,C[N+]1(CCCCC[N+]2(C)CCCC2)CCCC1.O=C([O-])C(O)C(O)C(=O)O.O=C([O-])C(O)C(O)C(=O)O,1.17
25,C[C@H]1CN=C(NS(=O)(=O)c2ccccc2)N1,0.943
26,CCCN1C[C@@H](C)[C@@H](OC)CN(C)C(=O)c2cc(NS(=O)(=O)c3cn(C)cn3)ccc2OC[C@H]1C,1.05
